Assay results taken from patent US20080234202A1, “Non-natural amino acids and neurotensin analogues” (priority 2004, published 2008).

By UniProt entry, the sequences of proteins in these tests, tags left out.
UniProt O95665, whole entry, species assumed: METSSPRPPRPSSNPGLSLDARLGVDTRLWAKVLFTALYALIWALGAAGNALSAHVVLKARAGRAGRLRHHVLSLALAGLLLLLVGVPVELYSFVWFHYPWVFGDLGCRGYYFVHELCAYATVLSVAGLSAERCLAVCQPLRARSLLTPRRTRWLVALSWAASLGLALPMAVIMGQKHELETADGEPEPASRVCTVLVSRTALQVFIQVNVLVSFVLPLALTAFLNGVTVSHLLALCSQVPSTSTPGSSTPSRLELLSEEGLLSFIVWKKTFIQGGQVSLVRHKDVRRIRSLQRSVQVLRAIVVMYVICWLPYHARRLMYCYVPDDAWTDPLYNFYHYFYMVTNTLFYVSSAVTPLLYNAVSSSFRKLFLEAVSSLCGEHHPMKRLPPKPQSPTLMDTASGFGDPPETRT
UniProt P20789, whole entry: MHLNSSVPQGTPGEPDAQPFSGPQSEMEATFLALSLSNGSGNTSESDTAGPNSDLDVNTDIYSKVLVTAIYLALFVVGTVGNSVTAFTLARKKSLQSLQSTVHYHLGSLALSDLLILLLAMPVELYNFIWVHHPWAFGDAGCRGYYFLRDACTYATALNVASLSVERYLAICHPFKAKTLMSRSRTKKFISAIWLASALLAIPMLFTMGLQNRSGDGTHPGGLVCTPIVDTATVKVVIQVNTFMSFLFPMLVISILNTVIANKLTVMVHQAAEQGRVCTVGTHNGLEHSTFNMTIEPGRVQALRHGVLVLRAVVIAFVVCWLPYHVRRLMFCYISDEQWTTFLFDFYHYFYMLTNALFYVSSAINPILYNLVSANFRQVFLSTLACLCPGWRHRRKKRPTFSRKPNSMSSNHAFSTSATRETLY

Assays:
NTR-2 = NTR-2 (Homo sapiens, UniProt O95665); test: Competitive NTR-2 binding versus radiolabeled NT[8-13]; details: -NH2 of ABS1 changed to -N3
NTR-1 = NTR-1 (Rattus norvegicus, UniProt P20789); test: Hypothermia induction in rats (rectal temperature); assay type: in vivo
[1] = Blood and plasma pharmacokinetics of ABS201 in rats
Source text: (§1) At selected time points, blood was removed or brain harvested and the concentration of the peptide analog determined using LC/MS/MS.
(§2) These samples were then used for the determination of plasma and brain drug levels by LC/MS/MS for estimating BBB penetration and pharmacokinetic parameters.

[2] = Brain distribution of ABS201 in rats
Source text: as §1, §2

[3] = 100 μg/mL
[4] = Catalepsy, horizontal bar test; details: IP 5 mg/kg

Compound | improvement of NTR-2 to NTR-1 selectivity (NTR-2) [fold] | ED50 (NTR-1; ip, read-out: ED50 for hypothermic induction, IP, range 0.1-10 mg/kg) [mg/kg] | ED50 (NTR-1; po, read-out: ED50 for hypothermic induction, oral, administered orally) [mg/kg] | plasma levels following oral administration ([1]; oral 30 mg/kg, non fasted rats) | levels in whole blood after oral administration ([1]; oral 50 mg/kg) | levels in brain following IV and PO administration ([2]; IV 1 mg/kg, PO 30 mg/kg) | levels in brain after IV administration ([2]; IV 5 mg/kg) | levels in brain after oral administration ([2]; oral 50 mg/kg, 15 minutes post) | partition between cellular and serum fractions of whole rat blood [3] | metabolites in whole rat blood (100 μg/mL) | metabolism in whole blood or plasma (5 or 30 min incubation at 37° C.) | catalepsy after peripheral administration [4]
CC(C)C[C@H](NC(=O)[C@@H](NC(=O)[C@H](Cc1ccc(O)cc1)NC(=O)[C@@H]1CCCN1C(=O)[C@H](CCCNC(=N)N)NC(=O)[C@H](CCCCCN)N=[N+]=[N-])C(C)(C)C)C(=O)O [ABS13, N3-L-homolysine-Arg-Pro-Tyr-tertLeu-Leu-COOH] | ~10 |  |  |  |  |  |  |  |  |  |  | 
CC(C)C[C@H](NC(=O)[C@@H](NC(=O)[C@H](Cc1ccc(O)cc1)NC(=O)[C@@H]1CCCN1C(=O)[C@H](CCCNC(=N)N)NC(=O)[C@@H](C)CCCCCN)C(C)(C)C)C(=O)O [ABS201, hLys-Arg-Pro-Tyr-t-Leu-Leu] |  | 0.943 | ~10 | below the LLOD at all times | below the LLOD at all times | below the LLOD at all times | below the LLOD at all times | measurable quantities of ABS201 were detected in brains of 2 of 3 animals | distributes almost evenly between the cellular and serum fractions | No metabolites | no evidence of metabolism | does not induce catalepsy; also recorded: Neither ABS201 (5 mg/kg) nor saline caused catalepsy; also recorded: does not induce a cataleptic state

“Also recorded” adds a separate entry of the source. Like-named read-outs stand apart in the source and are kept apart here.
